The test has as its system LNCaP cells. Kind of test: In vitro cytotoxicity of ADCs, Alamar Blue assay, LNCaP cells. Particulars: LNCaP cells (PSMA +ve), 4 days incubation, average of three replicate experiments. The format is cell-based, human. The protocol:
LNCaP and PC3 cells were a generous gift from Professor John Hartley (UCL) Cell culture medium was RPMI 1640 supplemented with L-Glutamine and 10% FBS. Cells were grown at 37° C., 5% CO2, in a humidified incubator.
The concentration and viability of cultures of suspended cells (at up to 1×10^6/ml) were determined by mixing 1:1 with Trypan blue and counting clear (live)/blue (dead) cells with a haemocytometer. The cell suspension was diluted to the required seeding density (generally 10^5/ml) and dispensed into 96-well flat bottomed plates. For Alamar blue assay, 100 μl/well was dispensed in black-well plates. For MTS assay, 50 μl/well was dispensed in clear-well plates. […] After incubation for 4 days, cell viability was measured by either Alamar blue or MTS assay.
AlamarBlue® (Invitrogen, catalogue number DAL1025) was dispensed (20 μl per well) into each well and incubated for 4 hours at 37° C. in the CO2-gassed incubator. Well fluorescence was measured at excitation 570 nm, emission 585 nm. Cell survival (%) was calculated from the ratio of mean fluorescence in the 4 ADC-treated wells compared to the mean fluorescence in the 4 control wells (100%).
MTS (Promega, catalogue number G5421) was dispensed (20 μl per well) into each well and incubated for 4 hours at 37° C. in the CO2-gassed incubator. Absorbance was measured at 490 nm. […]

As a reminder, the EC50 is the concentration giving half of the maximal effect. deJ591-D returned an EC50 of 4.897 ng/mL.
With deJ591-E, the concentration for a half-maximal effect (EC50) stood at 6.856 ng/mL.

The values above are taken from patent US10751346B2, “Pyrrolobenzodiazepine—anti-PSMA antibody conjugates” (priority 2012, dated 2020).
